Tests used:
Type in all cases: cell-based
[1] = Displacement of [125I]-amylin from rat AMY3R (CTR+RAMP3) expressed in BHK-13 cells measured after 120 mins by scintillation proximity assay
Homo sapiens [2] = organism: Homo sapiens; test: Ratio of EC50 for human calcitonin receptor expressed in BHK570 cells to EC50 for human AMY3R (CT+RAMP3) expressed in Hollex1 cells
Rattus norvegicus [3] = organism: Rattus norvegicus; test: Ratio of IC50 for displacement of [125I]-calcitonin from rat calcitonin receptor expressed in tk-ts 13 cells to IC50 for displacement of [125I]-amylin from rat AMY3R (CTR+RAMP3) expressed in BHK-13 cells
[4] = Displacement of [125I]-amylin from human AMY3R (CTR+RAMP3) expressed in BHK-13 cells measured after 120 mins by scintillation proximity assay
Rattus norvegicus [5] = organism: Rattus norvegicus; test: Ratio of EC50 for rat calcitonin receptor expressed in BHK-13 cells to EC50 for rat AMY3R (CT+RAMP3) expressed in tk-ts13 cells
[6] = Agonist activity at human AMY3R (CT+RAMP3) expressed in Hollex1 cells incubated for 3 hrs by luminescence assay; conditions: Hollex1, 3 h
[7] = Agonist activity at rat calcitonin receptor expressed in BHK-13 cells assessed as increase in intracellular cAMP concentration incubated for 25 mins by CRE luciferase reporter gene assay; conditions: BHK-13, 25 min
[8] = Displacement of [125I]-calcitonin from rat calcitonin receptor expressed in tk-ts 13 cells measured after 120 mins by scintillation proximity assay; conditions: tk-ts13
[9] = Displacement of [125I]-calcitonin from human calcitonin receptor expressed in tk-ts 13 cells measured after 120 mins by scintillation proximity assay; conditions: tk-ts13
Homo sapiens [10] = organism: Homo sapiens; test: Ratio of IC50 for displacement of [125I]-calcitonin from human calcitonin receptor expressed in tk-ts 13 cells to IC50 for displacement of [125I]-amylin from human AMY3R (CTR+RAMP3) expressed in BHK-13 cells
[11] = Agonist activity at rat AMY3R (CT+RAMP3) expressed in tk-ts13 cells assessed as increase in intracellular cAMP level incuabted for 25 mins by CRE luciferase reporter gene assay; conditions: tk-ts13, 25 min
[12] = Agonist activity at human calcitonin receptor expressed in BHK570 cells assessed as increase in intracellular cAMP concentration incubated for 3 hrs in absence of albumin by CRE luciferase reporter gene assay; conditions: BHK570, 3 h

Compound: CC[C@H](C)[C@H](NC(=O)[C@@H]1CCCN1C(=O)CNC(=O)[C@H](Cc1ccccc1)NC(=O)[C@H](CC(N)=O)NC(=O)[C@H](CC(N)=O)NC(=O)[C@H](CO)NC(=O)[C@H](CO)NC(=O)[C@H](Cc1c[nH]cn1)NC(=O)[C@@H](NC(=O)[C@H](CC(C)C)NC(=O)[C@H](Cc1ccccc1)NC(=O)[C@H](CC(N)=O)NC(=O)[C@H](C)NC(=O)[C@H](CC(C)C)NC(=O)[C@H](CCCNC(=N)N)NC(=O)[C@H](CCC(N)=O)NC(=O)[C@@H](NC(=O)[C@H](C)NC(=O)[C@@H]1CSSC[C@H](NC(=O)[C@@H](N)CCCCN)C(=O)N[C@@H](CC(N)=O)C(=O)N[C@@H]([C@@H](C)O)C(=O)N[C@@H](C)C(=O)N[C@@H]([C@@H](C)O)C(=O)N1)[C@@H](C)O)C(C)C)C(=O)N[C@@H](CC(C)C)C(=O)N1CCC[C@H]1C(=O)N1CCC[C@H]1C(=O)N[C@H](C(=O)N[C@@H](CC(N)=O)C(=O)N[C@H](C(=O)NCC(=O)N[C@@H](CO)C(=O)N[C@@H](CC(N)=O)C(=O)N[C@H](C(=O)N[C@@H](Cc1ccc(O)cc1)C(N)=O)[C@@H](C)O)C(C)C)[C@@H](C)O [PRAMLINTIDE]
- IC50 [1]: 0.122 nM
- Ratio EC50 (Homo sapiens [2]): 14
- Ratio IC50 (Rattus norvegicus [3]): 48
- IC50 [4]: 0.114 nM
- Ratio EC50 (Rattus norvegicus [5]): 463
- EC50 [6]: 0.005 nM
- EC50 [7]: 1.82 nM
- IC50 [8]: 5.83 nM
- IC50 [9]: 1.49 nM
- Ratio IC50 (Homo sapiens [10]): 13
- EC50 [11]: 0.004 nM
- EC50 [12]: 0.07 nM

Reference: ChEMBL document CHEMBL4842340, “Development of Cagrilintide, a Long-Acting Amylin Analogue” (J Med Chem, 2021)
